# Reference: patent US20080032959A1, “Estrogen Receptor Modulators” (priority 2004, published 2008)
# System: PR immunoreactive cells in the hippocampus
# Assay: Murine brain PR ICC assay, hippocampus (PR regulated exclusively by ERα)
# Type: in vivo, mouse
# Conditions: 0.2 mg/kg, 3 days; wild type and βERKO mice
# Procedure: FIG. 1: Progesterone receptor (PR) protein in the dorsal raphe nucleus of wild type and estrogen receptor beta knockout (βERKO) mice following treatment with 17β-estradiol (E2, 0.2 mg/kg), Δ5-androstene-3β, 17β-diol (A, 5 or 10 mg/kg) or vehicle (sesame oil). Animals (n=5/group) were treated for 3 days and brains and uteri were collected 24 hours after the last treatment and processed for immunohistochemistry. While both ERα and ERβ are expressed in the dorsal raphe nucleus, ERβ is more abundant and induction of PR by E2 in this brain region is primarily regulated by ERβ.
# Female mice (12-16 wks of age) are ovariectomized by the vendor (C57BL/6s from Charles River) and shipped one week later. Animals are fed a soy-free rodent chow upon arrival at the Merck animal facility, where they are given an additional week to adjust to the new environment. […]
# Free floating 40 μm sections are washed in cold 0.1 M phosphate buffered saline (PBS), pH 7.4, to thoroughly remove cryoprotectant. […] Three antibodies have been used, both of which recognize the two PR isoforms: 1) rabbit polyclonal [DAKO, 1:2500]; 2) mouse monoclonal [Affinity Bioreagents, 1:700]; 3) rabbit monoclonal [Lab Vision, SP2 clone “ready to use” diluted to 1:400]; we are currently using the SP2. […]
smiles,measurement,value
"C[C@]12CC[C@@H]3c4ccc(O)cc4CC[C@H]3[C@@H]1CC[C@@H]2O [E2, 17β-estradiol, reference compound]",PR immunoreactive cells in the hippocampus,robust expression
